Read-outs that look alike come from different tables or passages of the source.
How the values were obtained:
[1] = biological target: GSK3α (GST-full length GSK3α) (Homo sapiens (Human), UniProt P49840); test: GSK3α TR-FRET kinase assay; assay type: biochemical
[2] = biological target: GSK3b (GST-full length GSK3b) (Homo sapiens (Human), UniProt P49841); test: GSK3b TR-FRET kinase assay; assay type: biochemical
[3] = read-out: GSK3-A TR-FRET BIOCHEMICAL (TR-FRET), IC50, 1 nM GSK3α, 4 μM ATP, 30 minute preincubation (Table 16)
[4] = read-out: GSK3-B TR-FRET BIOCHEMICAL (TR-FRET), IC50, 1 nM GSK3b, 2 μM ATP, 30 minute preincubation (Table 16)
[5] = read-out: GSK3-A TR-FRET BIOCHEMICAL (TR-FRET);, 1 nM GSK3α, 4 μM ATP, 30 minute preincubation, Table 16
[6] = read-out: GSK3-B TR-FRET BIOCHEMICAL (TR-FRET);, 1 nM GSK3b, 2 μM ATP, 30 minute preincubation, Table 16
[7] = read-out: GSK3-A TR-FRET BIOCHEMICAL (TR-FRET), IC50, 1 nM GSK3α, 4 μM ATP, 30 minute preincubation
[8] = read-out: GSK3-B TR-FRET BIOCHEMICAL (TR-FRET), IC50, 1 nM GSK3b, 2 μM ATP, 30 minute preincubation
[9] = read-out: GSK3-A (TR-FRET 1 mM ATP), GMean, IC50, 1 mM ATP, geometric mean
[10] = read-out: GSK3-B (TR-FRET 1 mM ATP), GMean, IC50, 1 mM ATP, geometric mean
[11] = read-out: GSK3-A TR-FRET BIOCHEMICAL (TR-FRET), GMean, IC50, 1 nM GSK3α, 4 μM ATP, 30 minute preincubation, geometric mean
[12] = read-out: GSK3-B TR-FRET BIOCHEMICAL (TR-FRET), GMean, IC50, 1 nM GSK3b, 2 μM ATP, 30 minute preincubation, geometric mean

Chains of the proteins cited; added tags and fusions are not shown.
UniProt P49840, whole entry: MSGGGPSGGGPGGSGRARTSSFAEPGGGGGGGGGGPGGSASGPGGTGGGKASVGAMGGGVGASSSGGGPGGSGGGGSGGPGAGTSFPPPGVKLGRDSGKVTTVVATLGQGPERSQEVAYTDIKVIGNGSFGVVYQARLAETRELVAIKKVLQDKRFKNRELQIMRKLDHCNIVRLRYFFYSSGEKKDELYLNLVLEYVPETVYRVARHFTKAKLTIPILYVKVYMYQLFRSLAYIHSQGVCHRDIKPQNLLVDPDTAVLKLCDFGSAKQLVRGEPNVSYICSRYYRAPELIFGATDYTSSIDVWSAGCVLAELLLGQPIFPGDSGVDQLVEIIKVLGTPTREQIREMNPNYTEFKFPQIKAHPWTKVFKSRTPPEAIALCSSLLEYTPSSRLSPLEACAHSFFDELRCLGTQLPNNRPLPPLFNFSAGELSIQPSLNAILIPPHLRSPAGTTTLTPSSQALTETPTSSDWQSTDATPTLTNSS
UniProt P49841, whole entry: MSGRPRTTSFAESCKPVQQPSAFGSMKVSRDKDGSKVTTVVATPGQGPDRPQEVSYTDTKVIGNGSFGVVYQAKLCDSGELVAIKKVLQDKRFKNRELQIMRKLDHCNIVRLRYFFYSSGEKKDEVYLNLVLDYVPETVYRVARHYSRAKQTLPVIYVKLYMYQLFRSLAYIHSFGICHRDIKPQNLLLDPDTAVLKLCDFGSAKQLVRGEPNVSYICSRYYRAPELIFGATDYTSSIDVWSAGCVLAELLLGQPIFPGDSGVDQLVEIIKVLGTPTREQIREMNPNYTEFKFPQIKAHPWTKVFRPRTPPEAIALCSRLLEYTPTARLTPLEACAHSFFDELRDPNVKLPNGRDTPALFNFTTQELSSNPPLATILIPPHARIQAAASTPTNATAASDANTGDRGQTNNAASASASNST

CCC1(c2cccc(-c3cc(C)ncc3F)c2)C2=C(CC(C)(C)CC2=O)Nc2n[nH]cc21 (centres unmarked)
IC50 [1, 3]: < 100 nM | IC50 [2, 4]: < 100 nM

CCC1(c2cccc(-c3ccnc(C(C)(C)O)c3)c2)C2=C(CC(C)(C)CC2=O)Nc2n[nH]cc21 (centres unmarked)
IC50 [1, 5]: < 100 nM | IC50 [2, 6]: 1000 to 5000 nM

CC[C@@]1(c2cccc(S(C)(=O)=O)c2)C2=C(CC(C)(C)NC2=O)Nc2n[nH]cc21
IC50 [1, 7]: 1000 to 5000 nM | IC50 [2, 8]: > 5000 nM

CC[C@@]1(c2cccc(-c3cn(C)nc3C)c2)C2=C(CC(C)(C)NC2=O)Nc2n[nH]c(C(F)F)c21
IC50 [1, 9]: < 100 nM | IC50 [1, 3]: < 100 nM | IC50 [2, 10]: 100 to 1000 nM | IC50 [2, 4]: < 100 nM

CC[C@]1(c2cccc(-c3ccncn3)c2)C2=C(CC(C)(C)CC2=O)Nc2n[nH]cc21
IC50 [1, 11]: 1000 to 5000 nM | IC50 [2, 12]: > 5000 nM

CC[C@]1(c2cccc(-c3cn(C)nc3C(F)(F)F)c2)C2=C(CC(C)(C)NC2=O)Nc2n[nH]cc21
IC50 [1, 9]: < 100 nM | IC50 [1, 3]: < 100 nM | IC50 [2, 10]: < 100 nM | IC50 [2, 4]: < 100 nM

CC[C@]1(c2cccc(-c3ccnc(C)c3)c2)C2=C(C[C@H](C)NC2=O)Nc2n[nH]cc21
IC50 [1, 7]: 1000 to 5000 nM | IC50 [2, 8]: > 5000 nM

COc1ccc(S(=O)(=O)N2CCC[C@@]3(CC2)C2=C(CC(C)(C)CC2=O)Nc2n[nH]cc23)cc1
IC50 [1, 5]: < 100 nM | IC50 [2, 6]: 100 to 1000 nM

CCCc1cc(-c2cccc(C3(CC)C4=C(CC(C)(C)CC4=O)Nc4n[nH]cc43)c2)ccn1 (centres unmarked)
IC50 [1, 5]: < 100 nM | IC50 [2, 6]: 100 to 1000 nM

CC[C@@]1(c2cccc(N(C)c3ccnc(F)c3)c2)C2=C(CC(C)(C)CC2=O)Nc2n[nH]cc21
IC50 [1, 3]: < 100 nM | IC50 [2, 4]: < 100 nM

CC[C@]1(c2cccc(-c3cnn(C)c3)c2)C2=C(CC(C)(C)CC2=O)Nc2n[nH]c(C(F)(F)F)c21
IC50 [1, 9]: < 100 nM | IC50 [1, 11]: < 100 nM | IC50 [2, 10]: < 100 nM | IC50 [2, 12]: < 100 nM

CCC1(c2cccc(N(C)c3ccnn3C)c2)C2=C(CC(C)(C)CC2=O)Nc2n[nH]cc21 (centres unmarked)
IC50 [1, 3]: 100 to 1000 nM | IC50 [2, 4]: 1000 to 5000 nM

CC1(C)CC(=O)C2=C(C1)Nc1n[nH]c(CCC(F)(F)F)c1[C@]21CCc2c(F)cccc21
IC50 [1, 11]: 100 to 1000 nM | IC50 [2, 12]: 100 to 1000 nM

CC[C@@]1(c2cccc(N(C)c3ncccn3)c2)C2=C(CC(C)(C)NC2=O)Nc2n[nH]c(C(F)F)c21
IC50 [1, 9]: < 100 nM | IC50 [1, 3]: < 100 nM | IC50 [2, 10]: 100 to 1000 nM | IC50 [2, 4]: < 100 nM

CC[C@@]1(c2cccc(-c3ccnc(C)c3)c2)C2=C(CC(C)(C)NC2=O)Nc2n[nH]c(C(F)F)c21
IC50 [1, 9]: 100 to 1000 nM | IC50 [1, 3]: < 100 nM | IC50 [2, 10]: > 5000 nM | IC50 [2, 4]: < 100 nM

CCC1(c2cccc(S(=O)(=O)C3CC3)c2)C2=C(CC(C)(C)NC2=O)Nc2n[nH]cc21 (centres unmarked) [Compound 946004]
IC50 [1, 7]: < 100 nM | IC50 [2, 8]: < 100 nM

CCC1(c2cccc(-c3cncn3C)c2)C2=C(CC(C)(C)NC2=O)Nc2n[nH]c(C)c21 (centres unmarked)
IC50 [1, 11]: < 100 nM | IC50 [2, 12]: < 100 nM

CC(C)(C)Cc1[nH]nc2c1[C@]1(CCc3cc(F)ccc31)C1=C(CC(C)(C)CC1=O)N2
IC50 [1, 11]: 100 to 1000 nM | IC50 [2, 12]: 100 to 1000 nM

CC[C@]1(c2cccc(C)c2)C2=C(CC(C)(C)CC2=O)Nc2n[nH]c(C(F)(F)F)c21
IC50 [1, 3]: 1000 to 5000 nM | IC50 [2, 4]: > 5000 nM

CC[C@@]1(c2cccc(-c3c(F)cncc3OC)c2)C2=C(CN(Cc3ccccc3)C2=O)Nc2n[nH]cc21
IC50 [1, 9]: 100 to 1000 nM | IC50 [1, 7]: < 100 nM | IC50 [2, 10]: 1000 to 5000 nM | IC50 [2, 8]: < 100 nM

CCCS(=O)(=O)c1cccc([C@@]2(CC)C3=C(CC(C)(C)CC3=O)Nc3n[nH]cc32)c1
IC50 [1, 3]: 1000 to 5000 nM | IC50 [2, 4]: > 5000 nM

CC[C@]1(c2cccc(OC)c2)C2=C(CC(C)(C)CC2=O)Nc2n[nH]c(C(=O)OC)c21
IC50 [1, 3]: < 100 nM | IC50 [2, 4]: < 100 nM

CC[C@]1(c2cccc(NS(C)(=O)=O)c2)C2=C(CC(C)(C)CC2=O)Nc2n[nH]cc21
IC50 [1, 3]: < 100 nM | IC50 [2, 4]: < 100 nM

CC[C@]1(c2cccc(-c3cn(C)nc3C)c2)C2=C(CC(C)(C)NC2=O)Nc2n[nH]c(C(F)F)c21
IC50 [1, 3]: 100 to 1000 nM | IC50 [2, 4]: 100 to 1000 nM

CCCn1nccc1-c1cccc(C2(CC)C3=C(CC(C)(C)CC3=O)Nc3n[nH]cc32)c1 (centres unmarked)
IC50 [1, 3]: < 100 nM | IC50 [2, 4]: < 100 nM

CC[C@]1(c2cccc(-c3cnn4c3CCCC4)c2)C2=C(CC(C)(C)NC2=O)Nc2n[nH]c(C(F)(F)F)c21
IC50 [1, 11]: 100 to 1000 nM | IC50 [2, 12]: 100 to 1000 nM

CC[C@]1(c2cccc(-c3cc[n+]([O-])cc3[S@+](C)[O-])c2)C2=C(CC(C)(C)CC2=O)Nc2n[nH]cc21
IC50 [1, 5]: 100 to 1000 nM | IC50 [2, 6]: 1000 to 5000 nM

CC1(C)CC(=O)C2=C(C1)Nc1n[nH]cc1[C@@]21CCCN(S(=O)(=O)Cc2ccccc2)CC1
IC50 [1, 5]: < 100 nM | IC50 [2, 6]: 100 to 1000 nM
